Results taken from patent publication US6913892 (H LUNDBECK A S, dated 2005).

Protein sequences, listed by entry. Tags and fused reporters are not part of them. Lines headed by an entry give the natural chain unless they say otherwise; changes in a name come on top.
UniProt P0DQD5: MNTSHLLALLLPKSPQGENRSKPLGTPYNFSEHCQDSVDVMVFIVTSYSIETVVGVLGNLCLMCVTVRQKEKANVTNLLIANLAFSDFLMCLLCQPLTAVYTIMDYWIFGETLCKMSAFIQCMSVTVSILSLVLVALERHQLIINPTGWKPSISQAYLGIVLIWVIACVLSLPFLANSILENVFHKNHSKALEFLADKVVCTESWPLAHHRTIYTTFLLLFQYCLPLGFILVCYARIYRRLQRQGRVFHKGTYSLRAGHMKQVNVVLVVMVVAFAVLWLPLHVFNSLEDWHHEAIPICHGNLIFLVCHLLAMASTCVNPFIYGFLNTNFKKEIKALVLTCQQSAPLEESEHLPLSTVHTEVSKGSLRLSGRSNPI
UniProt Q63447, whole entry R262P: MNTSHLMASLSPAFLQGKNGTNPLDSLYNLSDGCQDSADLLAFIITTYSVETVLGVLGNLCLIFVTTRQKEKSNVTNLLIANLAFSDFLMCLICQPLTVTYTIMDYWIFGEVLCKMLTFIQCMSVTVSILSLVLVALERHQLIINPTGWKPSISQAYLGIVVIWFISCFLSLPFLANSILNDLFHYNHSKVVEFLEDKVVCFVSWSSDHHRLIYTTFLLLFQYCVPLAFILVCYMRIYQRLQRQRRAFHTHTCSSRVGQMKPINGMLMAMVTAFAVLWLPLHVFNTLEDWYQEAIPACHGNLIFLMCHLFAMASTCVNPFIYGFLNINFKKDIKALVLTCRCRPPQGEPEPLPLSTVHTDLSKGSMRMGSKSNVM
UniProt P25929, whole entry: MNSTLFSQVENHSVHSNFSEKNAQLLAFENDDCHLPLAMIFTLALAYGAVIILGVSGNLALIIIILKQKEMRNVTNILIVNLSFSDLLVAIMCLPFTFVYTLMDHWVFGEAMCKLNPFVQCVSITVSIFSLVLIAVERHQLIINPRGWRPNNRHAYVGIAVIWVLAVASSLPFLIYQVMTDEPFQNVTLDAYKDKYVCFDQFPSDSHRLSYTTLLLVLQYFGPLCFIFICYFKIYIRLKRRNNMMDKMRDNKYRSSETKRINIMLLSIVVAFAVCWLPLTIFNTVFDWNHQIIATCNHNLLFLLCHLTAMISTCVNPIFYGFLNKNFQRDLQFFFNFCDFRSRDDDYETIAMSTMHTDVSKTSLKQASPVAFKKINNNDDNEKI
UniProt P49146, whole entry: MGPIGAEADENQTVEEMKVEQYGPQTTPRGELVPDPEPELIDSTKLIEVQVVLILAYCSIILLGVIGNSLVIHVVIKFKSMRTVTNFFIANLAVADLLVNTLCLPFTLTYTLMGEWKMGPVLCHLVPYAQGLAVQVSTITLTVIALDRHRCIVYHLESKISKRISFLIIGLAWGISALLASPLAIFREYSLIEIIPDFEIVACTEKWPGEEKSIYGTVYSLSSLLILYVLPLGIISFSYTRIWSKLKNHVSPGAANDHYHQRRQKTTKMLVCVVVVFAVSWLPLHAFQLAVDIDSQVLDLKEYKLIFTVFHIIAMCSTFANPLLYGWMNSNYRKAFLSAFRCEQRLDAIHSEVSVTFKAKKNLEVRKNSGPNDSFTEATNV

Key:
human Y4 receptor [1] = biological target: T1, human Y4 receptor (human, UniProt P0DQD5 1-375); test: 125I-PYY displacement, COS-7 membranes
T1 construct: also called hp25a; hp25a receptor

rat Y4 receptor = biological target: T2, rat Y4 receptor (rat, UniProt Q63447 1-375); test: 125I-PYY displacement, COS-7 membranes
T2 construct: Full-length receptor (375 aa) transiently expressed in COS-7 cells; membranes used; also called rs16b; rat Y4 homolog

human Y4 receptor [2] = biological target: T1, human Y4 receptor; test: 125I-PYY displacement, COS-7 membranes (as in Table 3)
Experimental: (§1) Radioligand Binding to Membrane Suspensions: Membrane suspensions were diluted in binding buffer supplemented with 0.1% bovine serum albumin and 0.1% bacitracin to yield an optimal membrane protein concentration: ~0.02 mg/ml for human Y1 receptors, ~0.015 mg/ml for hp25a receptors, and ~0.25 mg/ml for SK-N-Be(2). […] Incubations were terminated by filtration over Whatman GF/C filters (pre-coated with 0.5% polyethyleneimine and air-dried before use). […] Binding data were analyzed using nonlinear regression and statistical techniques available in the GraphPAD InPlot package (San Diego, Calif.). […] Whatman GF/C filters were from Brandel (Gaithersburg, Md.). Bio-Rad Reagent was from Bio-Rad (Hercules, Calif.). Bovine serum albumin and bacitracin were from Sigma (St. Louis, Mo.). All other materials were reagent grade.

human Y4 receptor [3] = biological target: T1, human Y4 receptor; test: 125I-PYY displacement, COS-7 membranes; remark: listed apart in the source
Experimental: as §1

human Y4 receptor [4] = biological target: T1, human Y4 receptor; test: cell-based or functional assay
human Y1 receptor = biological target: T3, human Y1 receptor (human, UniProt P25929 1-384); test: 125I-PYY displacement, COS-7 membranes
T3 construct: Transiently expressed in COS-7 cells; membranes used; also called cloned human Y1 receptor (Larhammar et al., 1992)
Experimental: as §1

human Y2 receptor = biological target: T4, human Y2 receptor (human, UniProt P49146 1-381); test: 125I-PYY displacement, COS-7 membranes
T4 construct: whole, on cells; Transiently expressed in COS-7 cells; membranes used; also called cloned Y2 receptor
Experimental: as §1

B1: porcine neuropeptide Y (peptide)
peptide: not shown
modifications: C-terminal amide
notes: mature; also called porcine NPY; NPY, porcine
Human Y4 receptor [1]
  Ki: 1.1 nM
Rat Y4 receptor
  Ki: 1.8 nM
Human Y4 receptor [2]
  Ki: 1.1 nM
Human Y4 receptor [3]
  Ki: 1.1 nM
Human Y4 receptor [4]
  EC50, inhibition of forskolin-stimulated cAMP accumulation, LM(tk-) cells: 68 nM

B2: Phe-Met-Arg-Phe-Amide (peptide)
peptide: FMRF
modifications: C-terminal amide
notes: Tetrapeptide invertebrate neurotransmitter; also called FMRF-amide; FMRFamide
Human Y1 receptor
  Ki: 12000 nM
Human Y2 receptor
  Ki: 75000 nM

B3: Phe-Leu-Arg-Phe-amide (peptide)
peptide: FLRF
modifications: C-terminal amide
notes: Derivative of FMRFamide; also called FLRFamide; FLRF-amide
Human Y4 receptor [3]
  Ki: 750 nM
Human Y1 receptor
  Ki: 15000 nM

B4: human peptide YY (peptide)
peptide: not shown
modifications: C-terminal amide
notes: mature; also called human PYY; PYY, human
Human Y4 receptor [2]
  Ki: 0.87 nM
Human Y4 receptor [3]
  Ki: 0.87 nM
